Experiments:
[1] = target: T1, bovine serum albumin (BSA) (Bos taurus, UniProt P02769); experiment: Steady-state fluorescence quenching of BSA by RPG; type: binding; conditions: for Stern-Volmer quenching constant Ksv: phosphate buffer pH 7.4; for Kd: binding constant K
[2] = target: T1, bovine serum albumin (BSA); experiment: Time-resolved fluorescence lifetime of BSA in the presence of RPG; type: binding; conditions: BSA 1.67 μM
[3] = target: T1, bovine serum albumin (BSA); experiment: Site probe displacement; type: binding; conditions: 298 K
[4] = target: T1, bovine serum albumin (BSA); experiment: Fluorescence resonance energy transfer; type: binding; conditions: [BSA] = [RPG] = 1.67 μM
[5] = target: T1, bovine serum albumin (BSA); experiment: Effect of metal ions Cu; conditions: binding constant of RPG-BSA system, 298 K
[6] = target: T1, bovine serum albumin (BSA); experiment: Differential pulse voltammetry of RPG in the presence of BSA; type: binding
[7] = tested on: human serum albumin (HSA); conditions: cited from earlier work

The chains behind the UniProt entries cited, without tags or fusion partners. Residues count along the entry.
UniProt P02769, 25-607: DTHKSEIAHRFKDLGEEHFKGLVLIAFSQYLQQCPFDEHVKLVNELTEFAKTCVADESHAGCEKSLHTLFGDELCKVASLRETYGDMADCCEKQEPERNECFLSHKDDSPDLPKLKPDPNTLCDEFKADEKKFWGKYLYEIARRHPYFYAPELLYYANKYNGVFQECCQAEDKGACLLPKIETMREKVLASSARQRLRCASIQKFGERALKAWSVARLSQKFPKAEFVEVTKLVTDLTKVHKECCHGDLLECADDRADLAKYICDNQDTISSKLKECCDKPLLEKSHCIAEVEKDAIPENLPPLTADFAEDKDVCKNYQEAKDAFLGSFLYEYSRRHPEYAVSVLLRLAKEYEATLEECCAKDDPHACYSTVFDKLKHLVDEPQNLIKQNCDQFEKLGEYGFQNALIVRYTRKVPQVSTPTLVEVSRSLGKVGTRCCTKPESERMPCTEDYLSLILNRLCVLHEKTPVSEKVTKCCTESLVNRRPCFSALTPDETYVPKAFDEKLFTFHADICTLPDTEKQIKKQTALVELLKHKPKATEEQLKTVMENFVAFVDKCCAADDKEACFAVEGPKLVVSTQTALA

Structure (SMILES): CCOc1cc(CC(=O)NC(CC(C)C)c2ccccc2N2CCCCC2)ccc1C(=O)O (centres unmarked) [RPG, 2-Ethoxy-4-(2-((3-methyl-1-(2-(1-piperidinyl)phenyl)butyl)amino)-2-oxoethyl)benzoic acid]
- number of binding sites n per BSA molecule ([1]; 298, 303 and 308 K): ~1
- number of binding sites n ([1]; 298 K): 1.01
- ΔG^o ([1]; 298 K): -6.05 ± 0.098 kcal/mol
- number of binding sites n ([1]; 303 K): 1.05
- ΔG^o ([1]; 303 K): -6.74 ± 0.117 kcal/mol
- Stern-Volmer quenching constant Ksv ([1]; 303 K): (4.45 ± 0.08) × 10^4 L/mol/s
- number of binding sites n ([1]; 308 K): 1.04
- ΔG^o ([1]; 308 K): -7.24 ± 0.124 kcal/mol
- Stern-Volmer quenching constant Ksv ([1]; 308 K): (5.68 ± 0.12) × 10^4 L/mol/s
- quenching mechanism ([1]; Stern-Volmer analysis at 298, 303, 308 K): dynamic quenching mechanism
- Kd ([1]; 298 K, pH 7.4, no site probe or metal ion): 36.2 µM
- Kd ([1]; 303 K, pH 7.4): 13.3 µM
- Kd ([1]; 308 K, pH 7.4): 7.19 µM
- nature of binding force ([1]; from signs of ΔH° and ΔS°): hydrophobic forces
- ΔH^o ([1]; van't Hoff plot, 298-308 K): 29.57 ± 0.507 kcal/mol
- ΔS^o ([1]; van't Hoff plot, 298-308 K): 500.5 ± 6.95 J/K/mol
- <J> (average life time of BSA) ([2]; RPG 1.67 μM): 4.70 ns
- α1 (pre-exponential factor) ([2]; RPG 1.67 μM): 6.64
- α2 (pre-exponential factor) ([2]; RPG 1.67 μM): 14.6
- τ1 (decay time of BSA) ([2]; RPG 1.67 μM): 1.5
- τ1 (second column; decay time of BSA) ([2]; RPG 1.67 μM): 6.16
- <J> (average life time of BSA) ([2]; RPG 3.33 μM): 3.87 ns
- α1 (pre-exponential factor) ([2]; RPG 3.33 μM): 10.9
- α2 (pre-exponential factor) ([2]; RPG 3.33 μM): 14.9
- τ1 (decay time of BSA) ([2]; RPG 3.33 μM): 1.07
- τ1 (second column; decay time of BSA) ([2]; RPG 3.33 μM): 5.92
- <J> (average life time of BSA) ([2]; RPG 5.00 μM): 3.24 ns
- α1 (pre-exponential factor) ([2]; RPG 5.00 μM): 16
- α2 (pre-exponential factor) ([2]; RPG 5.00 μM): 14.8
- τ1 (decay time of BSA) ([2]; RPG 5.00 μM): 0.957
- τ1 (second column; decay time of BSA) ([2]; RPG 5.00 μM): 5.72
- <J> (average life time of BSA) ([2]; RPG 6.67 μM): 2.77 ns
- α1 (pre-exponential factor) ([2]; RPG 6.67 μM): 21.7
- α2 (pre-exponential factor) ([2]; RPG 6.67 μM): 14.4
- τ1 (decay time of BSA) ([2]; RPG 6.67 μM): 0.899
- τ1 (second column; decay time of BSA) ([2]; RPG 6.67 μM): 5.59
- <J> (average life time of BSA) ([2]; RPG 8.33 μM): 2.37 ns
- α1 (pre-exponential factor) ([2]; RPG 8.33 μM): 27.6
- α2 (pre-exponential factor) ([2]; RPG 8.33 μM): 14.4
- τ1 (decay time of BSA) ([2]; RPG 8.33 μM): 0.834
- τ1 (second column; decay time of BSA) ([2]; RPG 8.33 μM): 5.34
- <J> (average life time of BSA) ([2]; RPG 11.7 μM): 2.03 ns
- α1 (pre-exponential factor) ([2]; RPG 11.7 μM): 34.2
- α2 (pre-exponential factor) ([2]; RPG 11.7 μM): 14.7
- τ1 (decay time of BSA) ([2]; RPG 11.7 μM): 0.754
- τ1 (second column; decay time of BSA) ([2]; RPG 11.7 μM): 5.03
- binding site on BSA [3]: site II of subdomain IIIA
- critical distance Ro [4]: 1.01 nm
- distance between BSA and RPG (r) [4]: 1.48 nm
- efficiency of energy transfer E [4]: 0.1248
- overlap integral J [4]: 0.2906 × 10^−15 cm^3 L mol^−1
- Kd ([5]; in the presence of Cu(II) (1.67 μM)): 11.2 µM
- Kd ([5]; in the presence of Zn(II) (1.67 μM)): 402 µM
- Kd [6]: 56.5 µM
- binding ratio m ([6]; DPV, BR buffer pH 7.4, room temperature): 1.1
- binding constant of RPG-HSA (order of magnitude) [7]: ~10^5 M^−1

Source: paper PMC6702422 (Journal of Pharmaceutical Analysis, 2019)
